The target of the assay is purified human plasma kallikrein (Homo sapiens (Human), UniProt P03952). Put plainly: biochemical.

Chains of the proteins cited; added tags and fusions are not shown.
UniProt P03952, whole entry, looked up: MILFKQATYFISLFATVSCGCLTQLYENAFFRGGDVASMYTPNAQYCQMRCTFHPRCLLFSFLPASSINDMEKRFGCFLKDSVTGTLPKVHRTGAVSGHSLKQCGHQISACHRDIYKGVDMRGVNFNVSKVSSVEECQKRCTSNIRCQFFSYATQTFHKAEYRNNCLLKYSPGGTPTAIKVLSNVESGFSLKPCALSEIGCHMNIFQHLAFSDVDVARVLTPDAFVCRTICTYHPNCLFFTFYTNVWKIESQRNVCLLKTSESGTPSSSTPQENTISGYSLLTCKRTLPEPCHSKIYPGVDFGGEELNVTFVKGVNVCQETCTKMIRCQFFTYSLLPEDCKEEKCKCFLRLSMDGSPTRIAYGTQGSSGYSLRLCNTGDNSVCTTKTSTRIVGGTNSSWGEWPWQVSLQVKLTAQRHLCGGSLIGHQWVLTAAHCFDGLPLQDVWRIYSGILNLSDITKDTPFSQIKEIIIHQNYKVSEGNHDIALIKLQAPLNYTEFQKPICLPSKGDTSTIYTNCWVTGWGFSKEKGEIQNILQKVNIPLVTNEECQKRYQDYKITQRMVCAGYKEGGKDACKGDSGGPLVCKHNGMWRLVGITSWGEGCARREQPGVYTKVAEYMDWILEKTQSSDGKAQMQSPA

For orientation: Ki means the dissociation constant of the complex between target and ligand, obtained from inhibition or displacement. Higher therefore signals lower affinity. Molecule `COC(=O)c1ccc2c(c1)-c1cccc(c1)[C@@H](N1CC=C(c3c(F)ccc(Cl)c3F)CC1=O)CCC[C@@H](C)C(=O)N2` [Example 174, Methyl (10R,14S)-14-[4-(3-chloro-2,6-difluorophenyl)-2-oxo-1,2,3,6-tetrahydropyridin-1-yl]-10-methyl-9-oxo-8-azatricyclo[13.3.1.0^2,7]nonadeca-1(19),2,4,6,15,17-hexaene-4-carboxylate] had a Ki of 1400 nM.
As for `COC(=O)c1ccc2c(c1)-c1cccc(c1)[C@@H](N1CC=C(c3c(Br)ccc(Cl)c3F)CC1=O)CCC[C@@H](C)C(=O)N2` [Example 176, Methyl (10R,14S)-14-[4-(6-bromo-3-chloro-2-fluorophenyl)-2-oxo-1,2,3,6-tetrahydropyridin-1-yl]-10-methyl-9-oxo-8-azatricyclo[13.3.1.0^2,7]nonadeca-1(19),2,4,6,15,17-hexaene-4-carboxylate], the Ki was found to be 523 nM.

The values are drawn from patent US9951071B2 (dated 2018).
